# Data published in patent publication US20250034115A1, “CRYSTALLINE FORMS OF C-C CHEMOKINE RECEPTOR TYPE 4 ANTAGONIST AND USES THEREOF” (RAPT THERAPEUTICS, INC., priority 2023, published 2025).
# How the values were obtained:
# [1] = dynamic vapor sorption from 5% relative humidity to 95% relative humidity at 25° C.; hemi-L-tartrate hydrate
variability in hydration state (weight gain/loss) [1] [%],storage stability (6 months of storage under accelerated stability conditions (40° C. and 75% relative humidity)),storage stability (12 months of storage at controlled room temperature and humidity (25° C. and 40% relative humidity)),SMILES
~16,,,"Cc1nc(N2CC([C@H]3CCCN(C4CC(C)(C(=O)O)C4)C3)C2)nc(N[C@H](C)c2ccc(Cl)cc2Cl)c1Cl (stereo partly drawn) [Form E, (1R,3r)-3-((R)-3-(1-(5-chloro-4-(((R)-1-(2,4-dichlorophenyl)ethyl)amino)-6-methylpyrimidin-2-yl)azetidin-3-yl)piperidin-1-yl)-1-methylcyclobutane-1-carboxylic acid hemi-L-tartrate hydrate]"
~3,outstanding stability,outstanding stability,"Cc1nc(N2CC([C@H]3CCCN(C4CC(C)(C(=O)O)C4)C3)C2)nc(N[C@H](C)c2ccc(Cl)cc2Cl)c1Cl (stereo partly drawn) [Form F, (1R,3r)-3-((R)-3-(1-(5-chloro-4-(((R)-1-(2,4-dichlorophenyl)ethyl)amino)-6-methylpyrimidin-2-yl)azetidin-3-yl)piperidin-1-yl)-1-methylcyclobutane-1-carboxylic acid hemi-L-tartrate hydrate]"

# Read-outs that look alike come from different tables or passages of the source.
